Experimental data published in the NIST ThermoML archive (doi:10.1021/je500996n).
± gives the expanded uncertainty stated by the source.

Experiment: xn = mol fraction of the nth substance listed
Details: 318.15 K, 100 kPa, Liquid, Vibrating tube method

CC1(C)COC(=O)[C@@H]1O [D-pantolactone] + CCO
Details	mass density [kg/m3]
x1 = 0.072	827.3 ± 3.7
x1 = 0.1798	885.4 ± 4.9
x1 = 0.3372	952.4 ± 6.9
x1 = 0.3828	972.3 ± 6.6
x1 = 0.4368	987.3 ± 6.4
x1 = 0.4785	1000.1 ± 7.1

CC1(C)COC(=O)[C@@H]1O [D-pantolactone] + CCOC(C)=O
Details	mass density [kg/m3]
x1 = 0.1189	917.2 ± 3.9
x1 = 0.2551	956.5 ± 4.8
x1 = 0.3447	980 ± 5.3
x1 = 0.4229	999.4 ± 5.5
x1 = 0.4849	1010.7 ± 5.9
x1 = 0.5343	1024.5 ± 7.2

CC1(C)COC(=O)[C@@H]1O [D-pantolactone] + CO
Details	mass density [kg/m3]
x1 = 0.0696	854.4 ± 4
x1 = 0.1462	912 ± 5.3
x1 = 0.2135	948.1 ± 5.7
x1 = 0.2717	974.8 ± 5.5
x1 = 0.387	1011.8 ± 4.6
x1 = 0.4064	1014.6 ± 4.7

CC1(C)COC(=O)[C@@H]1O [D-pantolactone] + O
Details	mass density [kg/m3]
x1 = 0.0329	1024.6 ± 4.2
x1 = 0.1193	1065.2 ± 4.7
x1 = 0.1724	1079 ± 4.6
x1 = 0.2107	1083.7 ± 4.5
x1 = 0.2588	1090.5 ± 4.5
x1 = 0.2897	1092.8 ± 4.4
x1 = 0.3372	1095.6 ± 4.5
